Laboratory results reported in US9415034B2, “Inhibitors and enhancers of uridine diphosphate-glucuronosyltransferase 2B (UGT2B)” (NATIONAL DEFENSE MEDICAL CENTER, priority 2005, dated 2016).

Legend:
[1] = SD rat, oral nalbuphine 100 mg/Kg, with or without capillarisin 4 mg/Kg, Mean ± SE, n = 6
[2] = SD rat, intravenous nalbuphine, with or without capillarisin, Mean ± SE, n = 6

`Oc1ccc2c3c1O[C@H]1[C@@H](O)CC[C@@]4(O)[C@@H](C2)N(CC2CCC2)CC[C@]314` [Nalbuphine, nalbuphine] showed a V/F [1] of 2919.123 ± 863.25 L/kg and a V/F [2] of 42.194 ± 6.492 L/kg.

Like-named read-outs stand apart in the source and are kept apart here.
